## Measured affinities in a library of Ab-14 heavy chain variants

Source: Li et al. 2023 (doi:10.1038/s41467-023-39022-2), MIT Lincoln Laboratory and A-Alpha Bio; data file from the FLAb repository.

Target: peptide PDVDLGDISGINAS, taken from heptad repeat 2 (HR2) of SARS-CoV-2 spike.

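This is the validation round: designs drawn from the data on random variants, tested in the same kind of assay. Their group label is 14H_En_HC (En: ensemble of fine-tuned language models; HC: hill climbing; a sequence that several methods proposed may carry one label only). The assay is AlphaSeq: two haploid yeast populations carry antibody and antigen on their surface. Binding brings cells together so that they mate, and sequencing counts the barcode pairs among the diploids. Scores were corrected for input abundance and mapped to Kd with protein pairs of known affinity run in the same pool. Mating was done six times.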

Ab-14 is the parent antibody, in scFv form: VH, then a 15-residue (Gly4Ser)3 linker, then VL. The light chain is unchanged in all variants.
VH: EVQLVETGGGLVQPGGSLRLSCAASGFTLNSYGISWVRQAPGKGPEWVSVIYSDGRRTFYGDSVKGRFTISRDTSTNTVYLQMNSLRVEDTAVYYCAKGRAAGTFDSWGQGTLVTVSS
VL: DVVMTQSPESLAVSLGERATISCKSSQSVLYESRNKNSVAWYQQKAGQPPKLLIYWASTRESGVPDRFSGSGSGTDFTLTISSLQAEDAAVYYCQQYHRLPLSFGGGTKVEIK

The parent's heavy chain CDRs are GFTLNSYGIS, VIYSDGRRTFYGDSVK, GRAAGTFDS; each variant's own CDRs replace them letter for letter.
Values are log10 of the apparent Kd in nM; lower means stronger binding.
The mean shown is taken over the replicates in which the pair was detected.
An entry "n.d." has no value in the source: the pair was not observed among the diploids in that replicate. This suggests poor binding but is not conclusive.
In the paper, a design with two or fewer of six values counts as a poor binder.
The parent sequence was in this pool as ten entries: three were never detected, three once, and four in most replicates, with averages from 0.34 to 2.37.
Values of this round are not directly comparable with the first-round values of the same sequences.
Nonspecific signal, from three strains lacking the peptide, appeared in 1% of pairings of all heavy chain designs, centred on 2.08 (5% of these signals below 0.84); values are not corrected for it. For each scFv, signals with the empty controls are counted beside the result, with their mean in brackets.

| CDR-H1 | CDR-H2 | CDR-H3 | replicates, log10 nM | mean, log10 nM | signal with controls |
|---|---|---|---|---|---|
| GFNLDEYGIS | VIYADGRRTFYQDSVK | GEVAGTFDK | -0.01 -0.72 -0.10 -0.49 -0.43 -0.14 | -0.31 | 0 of 18 |
| GFDLNEYGIS | VIYADGRRTFYADSVK | GNLAGTFDV | -0.34 -0.78 -0.81 -0.93 -0.74 -0.41 | -0.67 | 0 of 18 |
| GFDLNEYGIS | VIYADGRRSYYADSVK | GQLAGTFDV | -0.66 -0.60 -0.80 -0.67 -0.72 -0.63 | -0.68 | 1 of 18 (1.09) |
| GFNLDEYGIS | VIYADGRRTAYSDSVK | GEVAGTFDL | -0.08 -0.33 0.04 -0.63 -0.19 -0.42 | -0.27 | 0 of 18 |
| GFDLEDYGIS | VIYADGRRTFYADSVK | GNVAGTFIL | 1.29 0.05 0.76 0.31 1.90 1.94 | 1.04 | 0 of 18 |
| GFDLESYGIS | VIYADGSRTAYADSVK | GNVAGTFNV | -0.52 0.04 -0.80 n.d. -1.44 -0.81 | -0.70 | 0 of 18 |
| GFDLNEYGIS | VIYADGRRTFYADSVK | GQTAGTFDQ | -0.03 -0.32 -0.65 -0.56 -0.77 -0.33 | -0.44 | 0 of 18 |
| GFDLESYGIS | VIYADGRRTFYADKVK | GENAGTFDI | -0.51 -0.22 -0.33 -0.36 -0.42 -0.43 | -0.38 | 0 of 18 |
| GFDLNEYGIS | VIYADGMRTAYTDSVK | GEFAGTFDS | 0.69 -0.13 0.13 -0.45 -0.43 -0.01 | -0.03 | 0 of 18 |
| GFDLNEYGIS | VIYADGMRTQYIDSVK | GNAAGTFDT | -0.22 -0.79 0.82 -0.73 0.10 0.18 | -0.11 | 0 of 18 |
| GFDLNEYGIS | VIYADGMRTFYTDSVK | GANAGTFDS | -0.34 -0.28 -0.31 -0.35 -0.41 -0.01 | -0.28 | 0 of 18 |
| GFDLNEYGIS | VIYADGRRTFYADSVK | GNEAGTFNM | -0.31 -0.25 -0.56 -0.78 -0.58 -0.65 | -0.52 | 0 of 18 |
| GFDLNEYGIS | VIYADGRRTFYTDNVK | GQNAGTFDQ | -0.72 -0.78 -0.34 -1.07 -0.94 -0.40 | -0.71 | 0 of 18 |
| GFDLNEYGIS | VIYADGRRTFYIDSVK | GTNAGTFDT | 0.24 -0.07 -0.32 -0.20 -0.08 0.23 | -0.03 | 0 of 18 |
| GFDLNEYGIS | VIYADGLRTSYADSVK | GQVAGTFDQ | -0.11 0.26 -0.35 -0.88 0.27 0.09 | -0.12 | 0 of 18 |
| GFDLDEYGIS | VIYADGRRTFYSDSVK | GEAAGTFDS | -1.23 -0.65 0.01 -0.22 -0.77 -0.81 | -0.61 | 0 of 18 |
| GFDLNEYGIS | VIYADGKRTAYTDSVK | GTNAGTFDM | 0.27 -0.07 -0.79 -1.03 -0.77 -0.47 | -0.48 | 0 of 18 |
| GFDLNEYGIS | VIYADGQRTAYADSVK | GKVAGTFDI | -0.46 -0.11 0.07 -0.09 -0.24 -0.15 | -0.16 | 0 of 18 |
| GFDLNEYGIS | VIYADGQRTFYSDSVK | GQLAGTFDS | -0.32 -0.40 -0.50 -0.49 -0.41 -0.25 | -0.40 | 0 of 18 |
| GFDLNEYGIS | VIYADGHRTFYSDSVK | GQSAGTFDL | -0.41 -0.46 -0.91 -0.15 0.58 -0.03 | -0.23 | 0 of 18 |
| GFDLDEYGIS | VIYADGRRTFYADSVK | GQNAGTFDV | 0.66 0.14 0.69 0.53 0.80 0.48 | 0.55 | 1 of 18 (1.51) |
| GFDLNEYGIS | VIYADGMRTFYTDSVK | GEHAGIFDV | 0.10 0.22 0.03 0.41 0.63 0.61 | 0.33 | 0 of 18 |
| GFDLDEYGIS | VIYADGRRTSYIDSVK | GETAGTFDV | -0.23 -0.48 -0.36 -0.45 0.13 0.13 | -0.21 | 0 of 18 |
| GFNLNEYGIS | VIYADGQRTFYADSVK | GGNAGTFDV | -0.52 -0.71 -0.48 -0.88 -0.67 -0.63 | -0.65 | 1 of 18 (2.50) |
| GFNLNEYGIS | VIYADGRRTFYADSVK | GGSAGTFDV | 0.20 -0.09 -0.12 -0.18 -0.19 -0.11 | -0.08 | 1 of 18 (3.04) |
| GFNLDEYGIS | VIYADGRRTFYSDDVK | GEVAGTFDI | -0.62 -0.19 -0.69 -0.68 -1.03 -0.17 | -0.56 | 0 of 18 |
| GFDLNEYGIS | VIYADGKRTFYADSVK | GNTAGTFDS | 0.08 0.24 0.29 0.08 0.83 0.64 | 0.36 | 0 of 18 |
| GFDLEEYGIS | VIYADGRRTFYSDSVK | GENAGTFDV | -0.59 -0.97 -1.14 -1.75 -0.97 -1.11 | -1.09 | 0 of 18 |
| GFDLNEYGIS | VIYADGRRTFYADSVK | GEVAGTFVL | 0.63 0.51 0.16 0.40 0.34 0.32 | 0.39 | 0 of 18 |
| GFDLNEYGIS | VIYADGRRTGYIDSVK | GEAAGTFDM | -0.05 -0.22 -0.44 -0.47 -0.21 -0.08 | -0.25 | 0 of 18 |
| GFNLDEYGIS | VIYADGRRTFYADSVK | GEIAGTFDV | -0.09 -0.19 -0.41 -0.37 -0.24 -0.03 | -0.22 | 0 of 18 |
| GFDLDEYGIS | VIYADGKRTFYADSVK | GENAGTFDM | -0.29 -0.32 -0.30 -0.07 -0.68 -0.34 | -0.33 | 1 of 18 (2.19) |
| GFDINEYGIS | VIYADGVRTFYADSVK | GQTAGTFDV | -0.56 -0.65 -0.50 -0.82 -0.79 -0.67 | -0.66 | 1 of 18 (2.68) |
| GFSLDEYGIS | VIYADGRRTFYQDSVK | GNVAGTFDV | -0.54 -0.74 -0.81 -0.98 -0.60 0.10 | -0.60 | 0 of 18 |
| GFDLNEYGIS | VIYADGRRTFYDDSVK | GQIAGTFDL | -0.24 -0.48 -0.74 -0.99 -0.80 -0.75 | -0.67 | 0 of 18 |
| GFNLNEYGIS | VIYADGRRTFYADSVK | GEIAGTFDE | -0.06 0.11 -0.20 0.63 0.08 -0.02 | 0.09 | 0 of 18 |
| GFDLNEYGIS | VIYADGRRTFYADSVK | GQVAGTFDM | -0.23 -0.94 -1.13 -1.02 -0.42 -1.71 | -0.91 | 0 of 18 |
| GFDLNEYGIS | VIYADGRRTQYIDSVK | GNEAGTFDS | 0.01 0.08 -0.10 -0.44 -0.37 -0.19 | -0.17 | 0 of 18 |
| GFDLNEYGIS | VIYADGRRTFYTDSVK | GTSAGTFDV | -0.43 -0.94 n.d. 0.11 n.d. n.d. | -0.42 | 0 of 18 |
| GFDLNEYGIS | VIYADGRRTQYIDSVK | GETAGTFDA | -0.94 -0.91 -0.91 -0.24 -0.67 -0.86 | -0.75 | 0 of 18 |
| GFDIDEYGIS | VIYADGRRTFYADSVK | GTNAGTFDK | -0.63 -0.12 -0.34 -0.67 -0.37 0.38 | -0.29 | 0 of 18 |
| GFDLNEYGIS | VIYADGRRTFYADSVK | GQAAGTFDI | 0.85 0.06 -0.49 0.40 0.01 0.78 | 0.27 | 0 of 18 |
| GFDLNEYGIS | VIYADGRRTFYSNSVK | GEAAGTFDV | 0.28 0.69 0.34 0.37 0.66 0.65 | 0.50 | 1 of 18 (1.81) |
| GFDLNEYGIS | VIYADGMRTHYTDSVK | GNEAGTFDL | -1.02 -0.97 -1.06 n.d. -1.11 -0.96 | -1.02 | 0 of 18 |
| GFDLNEYGIS | VIYADGRRKFYADSVK | GNTAGTFDS | 1.50 0.69 1.02 n.d. 0.79 0.73 | 0.95 | 0 of 18 |
| GFDLNEYGIS | VIYADGRRTFYADSVK | GNLAGTFDL | -0.59 -0.81 -0.82 -0.91 -0.88 -0.78 | -0.80 | 1 of 18 (2.12) |
| GFDLNEYGIS | VIYADGRRTFYLDSVK | GQIAGTFDQ | -0.53 -0.06 -0.18 -0.11 0.07 -0.76 | -0.26 | 0 of 18 |
| GFDLNEYGIS | VIYADGMRTAYSDSVK | GEIAGTFDQ | -0.52 -0.17 -0.49 -0.64 -0.79 -0.20 | -0.47 | 0 of 18 |
| GFDINEYGIS | VIYADGRRTFYADSVK | GQTAGTFDI | -0.61 -0.63 -0.83 -0.89 -0.78 -0.66 | -0.73 | 2 of 18 (2.27) |

Picked from the list: the 6 lowest averages where every replicate gave a value.

{"CDR-H1": "GFDLEEYGIS", "CDR-H2": "VIYADGRRTFYSDSVK", "CDR-H3": "GENAGTFDV", "replicates, log10 nM": "-0.59 -0.97 -1.14 -1.75 -0.97 -1.11", "mean, log10 nM": "-1.09", "signal with controls": "0 of 18"}
{"CDR-H1": "GFDLNEYGIS", "CDR-H2": "VIYADGRRTFYADSVK", "CDR-H3": "GQVAGTFDM", "replicates, log10 nM": "-0.23 -0.94 -1.13 -1.02 -0.42 -1.71", "mean, log10 nM": "-0.91", "signal with controls": "0 of 18"}
{"CDR-H1": "GFDLNEYGIS", "CDR-H2": "VIYADGRRTFYADSVK", "CDR-H3": "GNLAGTFDL", "replicates, log10 nM": "-0.59 -0.81 -0.82 -0.91 -0.88 -0.78", "mean, log10 nM": "-0.80", "signal with controls": "1 of 18 (2.12)"}
{"CDR-H1": "GFDLNEYGIS", "CDR-H2": "VIYADGRRTQYIDSVK", "CDR-H3": "GETAGTFDA", "replicates, log10 nM": "-0.94 -0.91 -0.91 -0.24 -0.67 -0.86", "mean, log10 nM": "-0.75", "signal with controls": "0 of 18"}
{"CDR-H1": "GFDINEYGIS", "CDR-H2": "VIYADGRRTFYADSVK", "CDR-H3": "GQTAGTFDI", "replicates, log10 nM": "-0.61 -0.63 -0.83 -0.89 -0.78 -0.66", "mean, log10 nM": "-0.73", "signal with controls": "2 of 18 (2.27)"}
{"CDR-H1": "GFDLNEYGIS", "CDR-H2": "VIYADGRRTFYTDNVK", "CDR-H3": "GQNAGTFDQ", "replicates, log10 nM": "-0.72 -0.78 -0.34 -1.07 -0.94 -0.40", "mean, log10 nM": "-0.71", "signal with controls": "0 of 18"}